System: sheep red blood cells
Assay: Hemolytic activity assay
Conditions: 1 h at 37 °C

Structure (SMILES): CC[C@H](C)[C@H](NC(=O)CN)C(=O)NCC(=O)N[C@@H](C)C(=O)N[C@H](C(=O)N[C@@H](CC(C)C)C(=O)N[C@@H](CCCCN)C(=O)N[C@H](C(=O)N[C@@H](CC(C)C)C(=O)N[C@H](C(=O)N[C@H](C(=O)NCC(=O)N[C@@H](CC(C)C)C(=O)N1CCC[C@H]1C(=O)N[C@@H](C)C(=O)N[C@@H](CC(C)C)C(=O)N[C@H](C(=O)N[C@@H](CO)C(=O)N[C@@H](Cc1c[nH]c2ccccc12)C(=O)N[C@H](C(=O)N[C@@H](CCCCN)C(=O)N[C@@H](CCCNC(=N)N)C(=O)N[C@@H](CCCCN)C(=O)N[C@@H](CCCNC(=N)N)C(=O)N[C@@H](CCC(N)=O)C(=O)N[C@@H](CCC(N)=O)C(N)=O)[C@@H](C)CC)[C@@H](C)CC)[C@@H](C)O)[C@@H](C)O)C(C)C)C(C)C [melittin]
- 50% hemolysis (HL50): 15 µg/mL
